{
  "sequences": {"note": "By UniProt entry, the sequences of proteins in these tests, tags left out. Where a name states a change or a piece, a line headed by the entry shows the natural chain unless it says otherwise.", "UniProt P31751": "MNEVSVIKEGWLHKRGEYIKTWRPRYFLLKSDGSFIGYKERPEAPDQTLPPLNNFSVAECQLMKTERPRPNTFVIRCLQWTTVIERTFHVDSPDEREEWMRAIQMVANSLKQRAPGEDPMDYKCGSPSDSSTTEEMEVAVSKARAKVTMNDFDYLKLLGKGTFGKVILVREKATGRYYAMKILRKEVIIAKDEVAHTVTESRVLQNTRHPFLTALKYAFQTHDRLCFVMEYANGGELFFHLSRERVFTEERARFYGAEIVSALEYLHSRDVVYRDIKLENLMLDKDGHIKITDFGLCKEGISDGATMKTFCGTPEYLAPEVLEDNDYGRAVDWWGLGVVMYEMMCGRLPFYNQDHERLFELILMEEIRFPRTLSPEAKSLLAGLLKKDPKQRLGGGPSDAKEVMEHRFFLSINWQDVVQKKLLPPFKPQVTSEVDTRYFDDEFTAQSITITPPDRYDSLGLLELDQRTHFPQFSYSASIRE"},
  "source": "patent US9604989B2",
  "about": "“Imidazopyridazines as Akt kinase inhibitors” (Bayer Intellectual Property GmbH, priority 2011, dated 2017)",
  "key": {"[1]": {"tested_on": "MCF-7 breast tumour cell line", "experiment": "Tumor cell proliferation assay (CellTiter-Glo), MCF-7", "type": "cell-based", "details": "Homo sapiens, MCF7, 72 h drug exposure, read-out: MCF-7 median IC50"}, "p-4E-BP1 at T70": {"tested_on": "p-4E-BP1 at T70", "experiment": "Cellular p-4E-BP1-T70 assay in KPL-4 cells", "type": "cell-based", "details": "Homo sapiens, KPL4; KPL-4 breast tumour cell line, compound treatment 2 hours; read-out: P4EBP1-T70 median IC50"}, "[2]": {"tested_on": "KPL-4 breast cancer cell line", "experiment": "Tumor cell proliferation assay (CellTiter-Glo), KPL-4", "type": "cell-based", "details": "Homo sapiens, KPL4, 72 h drug exposure, read-out: KLP-4 median IC50"}, "[3]": {"molecular_target": "His-tagged human recombinant kinase full-length Akt2 (Homo sapiens (Human), UniProt P31751)", "experiment": "Akt2 kinase assay (Akt2 TR-FRET assay)", "type": "biochemical", "details": "10 μM ATP, 60 min at 22° C., read-out: Akt2 median IC50"}},
  "data": [
    {"smiles": "NC1(c2ccc(-c3nc4c(-c5ccc(F)cc5)ccnn4c3-c3ccccc3)cc2)CCC1", "note": "[Example 44, 1-{4-[8-(4-Fluorophenyl)-3-phenylimidazo[1,2-b]pyridazin-2-yl]phenyl}cyclobutanamine]", "values": [
      {"measurement": "IC50", "setting": "[1]", "value": 1.9, "unit": "µM"}
    ]},
    {"smiles": "COc1cc(-c2ccnn2C)c2nc(-c3ccc(C4(N)CCC4)cc3)c(-c3ccccc3)n2n1", "note": "[Example 74, 1-{4-[6-Methoxy-8-(1-methyl-1H-pyrazol-5-yl)-3-phenylimidazo[1,2-b]pyridazin-2-yl]phenyl}cyclobutanamine]", "values": [
      {"measurement": "IC50", "setting": "p-4E-BP1 at T70", "value": 1.2, "unit": "µM"}
    ]},
    {"smiles": "NC(=O)c1ccc2nc(-c3ccc(C4(N)CCC4)cc3)c(-c3ccccc3)n2n1", "note": "[Example 5, 2-[4-(1-Aminocyclobutyl)phenyl]-3-phenylimidazo[1,2-b]pyridazine-6-carboxamide]", "values": [
      {"measurement": "IC50", "setting": "[1]", "value": 0.063, "unit": "µM"},
      {"measurement": "IC50", "setting": "[2]", "value": 0.17, "unit": "µM"}
    ]},
    {"smiles": "NC1(c2ccc(-c3nc4c(O)ccnn4c3-c3ccccc3)cc2)CCC1", "note": "[Example 32, 2-[4-(1-Aminocyclobutyl)phenyl]-3-phenylimidazo[1,2-b]pyridazin-8-ol]", "values": [
      {"measurement": "IC50", "setting": "[3]", "value": 3.3, "unit": "µM"}
    ]}
  ]
}
